Target: CDK2/Cyclin A2 (Homo sapiens, UniProt P24941)
Assay: Inhibition of human N-terminal GST-tagged CDK2 (1 to 298 residues)/Cyclin A (174 to 432 residues) expressed in Escherichia coli Turner (DE3) cells assessed as reduction in ADP formation using PKTPKKAKKL as substrate by resorufin dye based fluorescence assay

Q: How did the IC50 turn out when `Cc1nn(-c2ccccc2)c2c1C(=O)CC(C)(C)C2Br` (stereo unspecified) was run?
A: 56 µM

Source: ChEMBL document CHEMBL4732187, “Tetrahydroindazole inhibitors of CDK2/cyclin complexes” (Eur J Med Chem, 2021)
